Article PMC6862768 (Nature, 2019)

Target: T1, His8-tagged human TBK1, D135N (TBK1–His8) (human, UniProt Q9UHD2 1-729, D135N)
T1 sequence (looked up): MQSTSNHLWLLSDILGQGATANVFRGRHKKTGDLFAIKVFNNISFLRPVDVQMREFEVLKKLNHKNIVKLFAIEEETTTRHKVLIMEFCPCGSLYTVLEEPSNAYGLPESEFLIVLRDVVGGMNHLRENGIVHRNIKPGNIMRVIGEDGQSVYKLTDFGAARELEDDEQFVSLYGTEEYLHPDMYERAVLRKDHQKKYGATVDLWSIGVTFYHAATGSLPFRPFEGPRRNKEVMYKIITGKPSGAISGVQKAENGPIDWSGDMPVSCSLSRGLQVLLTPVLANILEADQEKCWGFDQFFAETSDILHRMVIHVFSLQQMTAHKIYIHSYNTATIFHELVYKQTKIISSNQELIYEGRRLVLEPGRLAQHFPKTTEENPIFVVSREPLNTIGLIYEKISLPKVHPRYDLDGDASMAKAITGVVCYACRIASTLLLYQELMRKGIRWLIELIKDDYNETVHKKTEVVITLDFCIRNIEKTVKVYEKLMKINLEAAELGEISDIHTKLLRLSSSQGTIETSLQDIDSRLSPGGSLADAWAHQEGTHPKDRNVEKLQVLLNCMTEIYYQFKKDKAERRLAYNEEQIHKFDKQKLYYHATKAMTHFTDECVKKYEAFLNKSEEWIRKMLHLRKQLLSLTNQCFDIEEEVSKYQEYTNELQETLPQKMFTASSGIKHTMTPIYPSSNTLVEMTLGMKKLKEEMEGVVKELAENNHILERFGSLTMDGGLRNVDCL
Experiment: pull-down

B1: Flag-tagged human STING (STING–Flag), purified, captured on anti-Flag M2 resin (natural protein, UniProt Q86WV6 1-379, looked up)
chain: MPHSSLHPSIPCPRGHGAQKAALVLLSACLVTLWGLGEPPEHTLRYLVLHLASLQLGLLLNGVCSLAEELRHIHSRYRGSYWRTVRACLGCPLRRGALLLLSIYFYYSLPNAVGPPFTWMLALLGLSQALNILLGLKGLAPAEISAVCEKGNFNVAHGLAWSYYIGYLRLILPELQARIRTYNQHYNNLLRGAVSQRLYILLPLDCGVPDNLSMADPNIRFLDKLPQQTGDHAGIKDRVYSNSIYELLENGQRAGTCVLEYATPLQTLFAMSQYSQAGFSREDRLEQAKLFCRTLEDILADAPESQNNCRLIAYQEPADDSSFSLSQEVLRHLRQEEKEEVTVGSLKTSAVPSTSTMSQEPELLISGMEKPLPLRTDFS
Q: Does B1 bind?
A: binds
